The test has as its target Amine oxidase [flavin-containing] B (Rattus norvegicus, UniProt P19643). In words: Inhibitory activity against Monoamine oxidase B from rat brain mitochondria.

Protein sequences, listed by entry. Tags and fused reporters are not part of them.
UniProt P19643, whole entry: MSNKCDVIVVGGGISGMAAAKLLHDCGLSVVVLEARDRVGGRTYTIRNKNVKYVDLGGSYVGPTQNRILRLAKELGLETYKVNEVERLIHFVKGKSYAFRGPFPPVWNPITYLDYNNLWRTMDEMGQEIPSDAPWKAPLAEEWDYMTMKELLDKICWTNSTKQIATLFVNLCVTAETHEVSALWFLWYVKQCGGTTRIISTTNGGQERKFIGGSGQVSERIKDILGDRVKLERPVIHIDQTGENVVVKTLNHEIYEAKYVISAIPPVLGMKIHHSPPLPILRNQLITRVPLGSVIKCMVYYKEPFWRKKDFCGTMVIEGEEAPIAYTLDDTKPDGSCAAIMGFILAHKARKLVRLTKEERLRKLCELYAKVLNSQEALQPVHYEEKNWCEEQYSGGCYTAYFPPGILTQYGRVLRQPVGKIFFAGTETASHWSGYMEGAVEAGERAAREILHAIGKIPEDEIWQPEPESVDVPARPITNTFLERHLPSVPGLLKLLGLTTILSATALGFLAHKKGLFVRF

pIC50: −log10 of the molar value.

By pIC50 is commonly meant the negative decadic logarithm of the IC50, by convention in mol/L. `Cc1cc2c(nn1)-c1ccccc1C2=O`: the pIC50 is 4.12.
